Test results published in PubChem BioAssay AID493084 (National Center for Advancing Translational Sciences (NCATS), 2011).
Several values for one entry are separate records, joined by “and”; a condition that tells them apart may be missing. Equal entries are not always repeated. Only a part is listed here, and it is no random draw. Activity calls are given as the source filed them. Cut-off read from the data, not from the text of the source: active = activation above about 30%; inactive = the rest.

Chains of the proteins cited; added tags and fusions are not shown. Lines headed by an entry give the natural chain unless they say otherwise; changes in a name come on top.
UniProt P34981: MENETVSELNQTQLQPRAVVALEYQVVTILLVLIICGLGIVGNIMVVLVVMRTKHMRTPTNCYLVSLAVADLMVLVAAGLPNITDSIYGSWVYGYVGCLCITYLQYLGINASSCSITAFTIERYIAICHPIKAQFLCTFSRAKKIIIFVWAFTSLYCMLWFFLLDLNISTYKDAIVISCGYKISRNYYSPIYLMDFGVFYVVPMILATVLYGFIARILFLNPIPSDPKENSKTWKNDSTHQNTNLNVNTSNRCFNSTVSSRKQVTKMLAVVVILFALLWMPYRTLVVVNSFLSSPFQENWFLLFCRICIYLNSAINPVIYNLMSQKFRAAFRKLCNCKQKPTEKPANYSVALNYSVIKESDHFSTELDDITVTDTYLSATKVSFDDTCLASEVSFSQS

Biological target: Thyrotropin-releasing hormone receptor (Homo sapiens) (UniProt P34981)
Experiment: qHTS for Small Molecule Agonists and Allosteric Enhancers of Human TRH Receptor: Primary Screen for Agonists. Note: 0% is about no effect.
Details: TRHR cells, calcium flux fluo-8, FDSS agonist mode; at 2 µM; stronger effect = higher value
Description: NIH Chemical Genomics Center [NCGC] NIH Molecular Libraries Probe Centers Network [MLPCN] MLPCN Grant: MH089816-01 Assay Submitter (PI): Marvin Gershengorn This project aims to identify small drug-like molecules that activate (agonists) the thyrotropin releasing hormone (TRH) receptor (TRHR) or enhance its TRH-stimulated activity (allosteric enhancers). TRHR, a drug-accessible cell surface receptor expressed in specific brain regions, and its ligand TRH have been implicated in several central nervous system disorders, including depression and anxiety. Small molecule TRHR agonists or allosteric enhancers that are metabolically stable and able to cross the blood-brain barrier might serve as probes to elucidate the roles of brain TRH receptors in animal models, and might be valuable as lead compounds for the development of drugs to treat patients with central nervous system disorders. Upon TRHR-Gq activation in TRHR cells, intracellular calcium is released from stores in the endoplasmic reticulum. […] This primary screen measures compound-induced activation of calcium release.
For the HTS assay freshly prepared cells are plated at a density of 2000/well in 3 ul of complete DMEM medium containing 10% serum in 1536-well plates and cultured over night at 37 C in a humidified incubator with 5% CO2. The next day, 2 ul of a no wash calcium dye (ABD Bioquest) was added to the cells and plates were incubated at room temperature for 1 hour. For the assay, assay plates were loaded into the FDSS kinetic plate reader. A 10 cycle (1 second/cycle) baseline measurement is taken and then the FDSS online 1536 pintool delivers 23 nl of compound library (as well as TRH controls) to the plate. The plate is measured for kinetically at 1 cycle/sec for 180 seconds and is considered to be the agonist portion of the assay (eg, compounds which activate a positive calcium response during this portion are flagged as potential agonists). Following the 180 second read, 1 ul of either an EC20 (positive modulation assay) is delivered by an onboard pipette head. Measurements are taken kinetically for an additional 180 seconds. TRHR FDSS Screening Protocol 1. Reagent, 3 uL 2000 cells/well 1536 TC treated Black plate in media containing 10% FCS 2. Time, 18 hours, 33.5C 5% CO2 (cells grown at 37C) 3. Reagent, 2 uL ABD fluo-8 Ca dye 4. Time, 30 min-1.5hrs hours, Room temp (6 plates/batch) 5. Detector, EX 480/EM 530C, FDSS 10 cycles baseline (1sec/cycle) 6. Compound, 23 nL of stock solution from library 7. Detector, EX 480/EM 530C, FDSS […] (1sec/cycle) Agonist mode 8. Compound, 1 ul EC20 of TRH made up in HEPES HBSS, 10 nM final 9. Detector, EX 480/EM 530C, FDSS 100 cycles (1sec/cycle) Potentiator mode

`O=[As](O)(c1ccccc1)c1ccc(O)cc1` was tested. Which activation did it give?
The activation was inactive: 0.415%.

For `O=[N+]([O-])c1ccc(O)c(/C=N/Nc2ccc([N+](=O)[O-])cc2[N+](=O)[O-])c1`, which activation is on record?
The activation was inactive: 4.56%.

With `CC(=O)NC(SC(=S)N(C)C)C(Cl)(Cl)Cl` (stereo not given) as the molecule, how does the activation read?
Its activation is inactive: 0.161%.

`O=[N+]([O-])c1ncn(CCn2cnc([N+](=O)[O-])n2)n1` was tested. Which activation did it give?
The activation was inactive: 0.143%.

Which activation does the source give for `C[C@H]1OP(=O)(Oc2ccccc2)[C@H](O)[C@H](O)[C@H]1N=[N+]=[N-]` (stereo not given in full) here?
The activation was inactive: -0.157%.

With `O=P(Nc1nc2ccccc2s1)(c1ccccc1)c1ccccc1` as the molecule, how does the activation read?
The activation was inactive: -1.17%.

With `O=P(Nc1ccccn1)(c1ccc(Br)cc1)c1ccc(Br)cc1` as the molecule, how does the activation read?
The activation was inactive: 0.326%.

How did the activation turn out when `CN(C)C1(CNC(=O)c2ccc(Cl)c(S(N)(=O)=O)c2)CCCCC1` was run?
The activation was inactive: -1.45%.

`O=C(O)CNc1ccc([As](=O)(O)O)cc1` was tested. Which activation did it give?
Its activation is inactive: -0.553%.

With `O=[N+]([O-])c1cccc(NC2=NCC(CBr)S2)c1` (stereo not given) as the molecule, how does the activation read?
The activation was inactive: -1%.

`O=[N+]([O-])c1ncn(CCn2ncnc2[N+](=O)[O-])n1` was tested. Which activation did it give?
Its activation is inactive: 0.958%.

How did the activation turn out when `CC(C)(C)C(=O)NC(Sc1ccncn1)C(Cl)(Cl)Cl` (stereo not given) was run?
The activation was inactive: 0.283%.

Which activation does the source give for `O=C(Nc1cc([As](=O)(O)O)ccc1O)c1ccccc1` here?
The activation was inactive: 0.341%.

Which activation does the source give for `CC1CCN(C(=O)Oc2c(Cl)cc(Cl)c3cccnc23)CC1` here?
The activation was inactive: 9.06%.

For `CN(C)C(=O)OCCc1n(C)cc[n+]1C`, which activation is on record?
The activation was inactive: -0.593%.

With `CC(C)=N/N=C(\N)N[N+](=O)[O-]` as the molecule, how does the activation read?
The activation was inactive: -0.678%.

`CCN(/C(=N/P(=O)(N1CCOCC1)N1CCOCC1)N1CCOCC1)c1ccc(OC)cc1` was tested. Which activation did it give?
The activation was inactive: 0.278%.

For `C[N+]1=C2C=CC=CC=C2SC12C([N+](=O)[O-])=CC([N+](=O)[O-])=C[C-]2[N+](=O)[O-]` (stereo not given), which activation is on record?
Its activation is inactive: 0.935%.

For `Nc1ccc([As](=O)(O)c2ccc(N)cc2)cc1`, which activation is on record?
Its activation is inactive: 0.842%.

Which activation does the source give for `CCc1nc2c(n1)c1c(non1O)c1c2no[n+]1[O-]` here?
The activation was inactive: 0.227%.

For `O=[N+]([O-])c1cc([N+](=O)[O-])c(CCNc2ccccc2)c([N+](=O)[O-])c1`, which activation is on record?
Its activation is inactive: 1.3%.

For `Cc1ccc(NP(=O)(Oc2ccccc2)Oc2ccccc2)nc1`, which activation is on record?
Its activation is inactive: 0.466%.

Which activation does the source give for `O=[N+]([O-])c1cccc2n[nH]nc12` here?
The activation was inactive: 0.22%.

Which activation does the source give for `CC(=O)N1C2C3N(C(C)=O)C1C1N(C(C)=O)C(C(N1C(C)=O)N3C(C)=O)N2C(C)=O` here?
Its activation is inactive: -0.339%.

With `COc1ccc(C2=NCC(CBr)S2)cc1` (stereo not given) as the molecule, how does the activation read?
The activation was inactive: -0.843%.

`Cc1c2non([O-])c-2c(C)[n+](=O)[n+]1[O-]` was tested. Which activation did it give?
The activation was inactive: -0.644%.

Which activation does the source give for `O=C(NC(Sc1ccncn1)C(Cl)(Cl)Cl)c1ccccc1` (stereo not given) here?
Its activation is inactive: -0.28%.

`Oc1ccccc1CNc1ccccn1` was tested. Which activation did it give?
Its activation is inactive: -1.1%.

Which activation does the source give for `Nc1cc(N)c2nonc2c1[N+](=O)[O-]` here?
Its activation is inactive: 0.183%.

With `Clc1ccc(Cl)c(NC2=NCC(CBr)S2)c1` (stereo not given) as the molecule, how does the activation read?
The activation was inactive: -0.433%.

`CN1CCCC(OC(=O)C(c2ccccc2)c2ccccc2)C1` (stereo not given) was tested. Which activation did it give?
Its activation is inactive: 0.912%.

`Cc1ccc(OP(=O)(Nc2nccs2)Oc2ccc(C)cc2)cc1` was tested. Which activation did it give?
The activation was inactive: -0.125%.

How did the activation turn out when `COc1ccccc1OP(=O)(Nc1ccc(C)cn1)Oc1ccccc1OC` was run?
The activation was inactive: 0.294%.

For `Cc1ccc(N/C(=N/P(=O)(N2CCOCC2)N2CCOCC2)N2CCOCC2)cc1`, which activation is on record?
Its activation is inactive: -0.986%.

With `CN(C(=O)Cc1ccc(Cl)c(Cl)c1)[C@H]1CCCC[C@H]1N1CCCC1` as the molecule, how does the activation read?
The activation was inactive: 0.829%.

How did the activation turn out when `NC(=O)c1cc([N+](=O)[O-])cc([N+](=O)[O-])c1N` was run?
Its activation is inactive: -1.1%.

With `Nc1cccc2ccc([As](=O)(O)O)cc12` as the molecule, how does the activation read?
Its activation is inactive: -0.804%.

With `CCN(N=Nc1nonc1N)c1nonc1N` as the molecule, how does the activation read?
The activation was inactive: 0.132%.

With `O=[N+]([O-])c1cc([N+](=O)[O-])c(CCN2CCOCC2)c([N+](=O)[O-])c1` as the molecule, how does the activation read?
The activation was inactive: 0.307%.

For `Cc1ccc(NP(=O)(Oc2ccccc2F)Oc2ccccc2F)nc1`, which activation is on record?
Its activation is inactive: -0.378%.

How did the activation turn out when `CCOP(=O)(Nc1ccccc1)OCC` was run?
The activation was inactive: 0.249% and inactive: -0.632%.

How did the activation turn out when `Cc1cc(SC(NC(=O)c2ccc(F)cc2)C(Cl)(Cl)Cl)ncn1` (stereo not given) was run?
The activation was inactive: -0.946%.

How did the activation turn out when `O=P(Nc1nc2ccc(Cl)cc2s1)(c1ccccc1)c1ccccc1` was run?
The activation was inactive: 0.46%.

With `O=C(O)c1ccccc1[As](=O)(O)O` as the molecule, how does the activation read?
Its activation is inactive: -0.407%.

For `CC(=O)Nc1ccc([As](=O)(O)O)cc1`, which activation is on record?
Its activation is inactive: 0.582%.
